Earlier results as cited in patent US20240262917A1, “ANTIBODIES AGAINST ALK AND METHODS OF USE THEREOF” (Dana-Farber Cancer Institute, Inc., priority 2021, published 2024).

Tested on: ALK-positive NSCLC
Settings: cited from earlier work

Compound	median duration of response [months]
CCc1cc2c(cc1N1CCC(N3CCOCC3)CC1)C(C)(C)c1[nH]c3cc(C#N)ccc3c1C2=O [alectinib]	25.7
C[C@@H](Oc1cc(-c2cnn(C3CCNCC3)c2)cnc1N)c1c(Cl)ccc(F)c1Cl [crizotinib]	10.9
